Data from patent US9868772B2 (INDIANA UNIVERSITY RESEARCH AND TECHNOLOGY CORPORATION, priority 2012, dated 2018).

Amino acid sequences for entries named in this document (tags omitted). Residues count along the entry.
UniProt P43220, 24-463: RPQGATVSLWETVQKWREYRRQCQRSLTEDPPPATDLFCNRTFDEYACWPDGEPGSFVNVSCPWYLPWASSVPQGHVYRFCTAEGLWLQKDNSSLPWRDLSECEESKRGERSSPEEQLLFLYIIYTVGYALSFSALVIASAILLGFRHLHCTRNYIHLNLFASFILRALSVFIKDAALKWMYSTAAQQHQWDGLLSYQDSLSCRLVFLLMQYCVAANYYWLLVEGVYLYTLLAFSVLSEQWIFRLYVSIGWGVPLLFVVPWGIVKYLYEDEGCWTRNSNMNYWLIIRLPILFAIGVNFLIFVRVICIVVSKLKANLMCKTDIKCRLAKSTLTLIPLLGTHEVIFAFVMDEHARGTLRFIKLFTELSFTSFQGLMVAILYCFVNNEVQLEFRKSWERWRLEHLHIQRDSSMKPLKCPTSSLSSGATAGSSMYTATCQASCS

Target: T1, GLP-1 receptor (Homo sapiens, UniProt P43220)
T1 construct: expressed in transfected cells; host or cells: HEK293
Assay: cAMP induction, firefly luciferase reporter assay in HEK293 cells co-transfected with receptor
Assay type: cell-based
Description: The ability of glucagon analogs to induce cAMP was measured in a firefly luciferase-based reporter assay. […] At the end of the incubation 100 microliters of LucLite luminescence substrate reagent (Perkin-Elmer, Wellesley, Mass.) were added to each well. […] Effective 50% concentrations were calculated by using Origin software (OriginLab, Northampton, Mass.

## CCCCCCCCCCCCCCCC(=O)N[C@@H](CCC(=O)NCCCC[C@H](NC(=O)[C@H](CC(=O)O)NC(=O)[C@H](CO)NC(=O)[C@@H](NC(=O)[C@H](Cc1ccccc1)NC(=O)[C@@H](NC(=O)CNC(=O)[C@H](CCC(N)=O)NC(=O)[C@H](C)NC(=O)[C@H](N)Cc1cccs1)[C@@H](C)O)[C@@H](C)O)C(=O)N[C@@H](CO)C(=O)N[C@@H](CCCCN)C(=O)N[C@@H](Cc1ccc(O)cc1)C(=O)N[C@@H](CC(C)C)C(=O)N[C@@H](CC(=O)O)C(=O)N[C@@H](CCC(=O)O)C(=O)N[C@@H](CCCNC(=N)N)C(=O)N[C@@H](C)C(=O)N[C@@H](C)C(=O)N[C@@H](CCC(N)=O)C(=O)N[C@@H](CC(=O)O)C(=O)N[C@@H](Cc1ccccc1)C(=O)N[C@H](C(=O)N[C@@H](CCC(N)=O)C(=O)N[C@@H](Cc1c[nH]c2ccccc12)C(=O)N[C@@H](CC(C)C)C(=O)N[C@@H](CC(C)C)C(=O)N[C@@H](CCC(=O)O)C(=O)NCC(=O)NCC(=O)N1CCC[C@H]1C(=O)N[C@@H](CO)C(=O)N[C@@H](CO)C(=O)NCC(=O)N[C@@H](C)C(=O)N1CCC[C@H]1C(=O)N1CCC[C@H]1C(=O)N1CCC[C@H]1C(=O)N[C@@H](CO)C(N)=O)C(C)C)C(=O)O [compound 18]
  EC50: 8 pM
